We go through 1 molecule from US6187552A, “Method for identifying inhibitors of JAK2/cytokine receptor binding” (Pharmacia & Upjohn Company, priority 1998, dated 2001).

One experiment concerns βc in human TF-1 cells. The experiment can be described thus: Tyrosine phosphorylation of βc in human TF-1 cells stimulated with IL-3 (immunoblot). Type of experiment: cell-based. As to the method:
After incubation on ice for 15 min, debris was pelleted by centrifugation at 16,000×g. βc was immunoprecipitated from the lysate by rotating overnight at 4° with a 1:300 dilution of anti-βcantibody (Upstate Biotechnology, Lake Placid, N.Y.). Twenty microliters of protein A-Sepharose (Pharmacia Biotech, Uppsala, Sweden) were added to each lysate, and the incubation was continued one hour.
(§1) The human erythroleukemia cell line TF-1 [46] was obtained from the American Type Culture Collection and grown in RPMI 1640 supplemented with 10% FBS, 100 U/ml penicillin (GibcoBRL, Gaithersburg, Md.), 100 μg/ml streptomycin (GibcoBRL, Gaithersburg, Md.), and 2.5 ng/ml recombinant human IL-3 (Biosource, Camarillo, Calif.). Before experiments, TF-1 cells were grown overnight in RPMI 1640 medium with 1% PBS in the absence of IL-3. Cells were then resuspended at 2×10^7 cells/ml in fresh RPMI 1640 with 1% FBS and treated as described for eosinophils above, except 20 ng/ml IL-3 was used and the lysis buffer was 20 mM Tris, pH 7.6, 50 mM NaCl, 50 mM NaF, 1 mM sodium orthovanadate, 5 mM EGTA, and 1% Triton X-100. For cells treated without IL-3, PBS+0.1% BSA was added instead.
A general note: Immunoblotting shows a protein as a band on a membrane.

A further experiment relates to JAK2 in human TF-1 cells. The experiment can be described thus: Tyrosine phosphorylation of JAK2 in human TF-1 cells stimulated with IL-3 (immunoblot). Type of experiment: cell-based. As to the method:
as §1
JAK2 was immunoprecipitated from the lysate by rotating overnight at 4° with a 1:300 dilution of anti-JAK2 antibody (Upstate Biotechnology, Lake Placid, N.Y.). Twenty microliters of protein A-Sepharose (Pharmacia Biotech, Uppsala, Sweden) were added to each lysate, and the incubation was continued one hour.
The beads were washed three times by centrifugation with 1 ml cold lysis buffer, resuspended in sodium dodecyl sulfate-polyacrylamide gel electrophoresis (SDS-PAGE) loading buffer, boiled 10 min, and separated by electrophoresis on 4-20% acrylamide gradient gels (Integrated Separation Systems, Natick, Mass.). Proteins were transferred by the method of Towbin et al to Optitran (Schleicher & Schuell, Keene, N.H.). After blocking in TBS-T (20 mM Tris, pH 7.4, 100 mM NaCl, and 0.05% Tween-20) with 1% bovine serum albumin at 37° for one hour, peroxidase-conjugated anti-phosphotyrosine antibody RC20 (Transduction Laboratories, Lexington, Ky.) was added at a dilution of 1:3000 and incubation continued for two hours at room temperature. The blot was washed three times for 10 min at room temperature in TBS-T and developed using SuperSignal HRP (Pierce Chemical, Rockford, Ill.).

B1: IL-3: recombinant human IL-3 (Biosource) (protein, UniProt P08700 20-152, looked up)
Interleukin-3: APMTQTTPLKTSWVNCSNMIDEIITHLKQPPLPLLDFNNLNGEDQDILMENNLRRPNLEAFNRAVKSLQNASAIESILKNLLPCLPLATAAPTRHPIHIKDGDWNEFRRKLTFYLKTLENAQAQQTTLSLAIF
On to B1, for which the “tyrosine phosphorylation of βc, time course” value in the experiment with βc in human TF-1 cells (20 ng/ml IL-3, 37°, FIG. 3) is recorded as “time course matching that seen in eosinophils”. In addition, in the experiment with βc in human TF-1 cells (200 ng/ml IL-3), the “time of peak phosphorylation of βc” value is reported as 1 min. Further, in the experiment on JAK2 in human TF-1 cells (20 ng/ml IL-3, 37°, FIG. 4), the JAK2 tyrosine phosphorylation entry was “easily detectable” and the “JAK2 tyrosine phosphorylation, time course” value is “its time course paralleled that of βc”. The “time of peak phosphorylation of JAK2” value in the experiment on JAK2 in human TF-1 cells (200 ng/ml IL-3) was found to be 1 min.
